In ChEMBL document CHEMBL2074488, “Kinetic and selectivity differences between rodent, rabbit, and human organic cation transporters (OCT1)” (J Pharmacol Exp Ther, 2000):

Biological target: T1, Solute carrier family 22 member 1 (Rattus norvegicus, UniProt Q63089)
T1 sequence (Q63089 whole entry): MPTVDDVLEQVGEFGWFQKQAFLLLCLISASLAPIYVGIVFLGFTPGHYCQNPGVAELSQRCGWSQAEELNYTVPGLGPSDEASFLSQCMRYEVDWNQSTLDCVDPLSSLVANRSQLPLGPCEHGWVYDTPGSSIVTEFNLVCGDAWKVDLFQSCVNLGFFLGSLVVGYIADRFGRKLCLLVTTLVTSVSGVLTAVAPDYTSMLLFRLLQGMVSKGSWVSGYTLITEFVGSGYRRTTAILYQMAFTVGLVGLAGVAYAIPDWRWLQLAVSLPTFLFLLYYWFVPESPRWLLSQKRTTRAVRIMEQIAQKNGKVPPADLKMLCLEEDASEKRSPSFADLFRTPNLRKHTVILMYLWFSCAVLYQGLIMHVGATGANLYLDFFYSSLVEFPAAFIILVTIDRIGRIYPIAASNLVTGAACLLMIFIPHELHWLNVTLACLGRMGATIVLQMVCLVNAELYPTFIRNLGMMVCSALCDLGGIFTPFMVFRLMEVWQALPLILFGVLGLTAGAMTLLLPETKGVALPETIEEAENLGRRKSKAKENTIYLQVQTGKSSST
Type: functional, cell-based, Xenopus laevis, Oocyte

Work on `C[N+](C)(C)C` [TETRAMETHYLAMMONIUM] yielded a Ki of 905 µM.
